# Apparent affinities of Ab-14 variants for a coronavirus HR2 peptide

Values reported by Li et al. 2023, doi:10.1038/s41467-023-39022-2 (FLAb copy).

Target peptide (SARS-CoV-2 spike, HR2 region): PDVDLGDISGINAS

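The starting antibody came from a phage panning campaign against this peptide. The variants were designed computationally from a first round of random CDR variants and then made and measured. Group labels follow the data file (Ctrl: baseline library sampled from a position-specific scoring matrix, with some repeated check sequences; Rand: our label for a block that the file lists under HC and that is probably the random mutants of the ten best first-round binders; En: ensemble of fine-tuned language models; GP: Gaussian process model; GPLM: also part of the Gaussian process libraries; HC: hill climbing; Gen: genetic algorithm; Gibbs: Gibbs sampling; a sequence that several methods proposed may carry one label only). AlphaSeq pools MATa yeast showing the antibodies with MATalpha yeast showing the peptide. Mating (16 h, 30 °C) was followed by selection of diploids and sequencing of their barcodes. The ratio of observed to expected reads was calibrated, replicate by replicate, on BCL2-family standards whose Kd was known from biolayer interferometry. Mating was done six times.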

Parent scFv Ab-14: VH joined to VL by the linker GGGGSGGGGSGGGGS. Changes lie in the heavy chain CDRs alone.
VH: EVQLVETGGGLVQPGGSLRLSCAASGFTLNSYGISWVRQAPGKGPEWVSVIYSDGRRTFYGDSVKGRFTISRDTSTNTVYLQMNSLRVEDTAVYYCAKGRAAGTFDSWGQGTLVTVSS
VL: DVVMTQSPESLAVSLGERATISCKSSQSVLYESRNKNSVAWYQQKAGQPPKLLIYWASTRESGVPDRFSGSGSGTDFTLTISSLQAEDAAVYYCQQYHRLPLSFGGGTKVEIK

Each variant is given by its three heavy chain CDRs, as the data file delimits them; those of the parent are GFTLNSYGIS, VIYSDGRRTFYGDSVK, GRAAGTFDS. Values are log10 of the apparent Kd in nM; lower means stronger binding. A mean of the replicates is given; it leaves out those without a signal. "no signal" means that the variant was in the library but no mating with the target was seen in any replicate; the authors take this as a sign of poor binding, and no number exists. Of ten entries with the parent sequence, four were seen in most replicates (averages 0.34 to 2.37), three in one and three in none, so single entries are noisy. The authors' rule: three or more of the six replicates give a measured affinity, fewer mean a poor binder. Values of this round are not directly comparable with the first-round values of the same sequences. As a blank, each scFv also met three strains without target: over all heavy chain designs, 1% of these pairings were detected, typically at 2.08 and seldom below 0.84. A sequence that the file lists under several names has all its replicates pooled.

| log10 Kd (nM), mean | replicates with signal | CDR-H1 | CDR-H2 | CDR-H3 | group |
|---|---|---|---|---|---|
| -0.61 | 6/6 | GFDLNEYGIS | VIYADGRRTFYADSVK | GQIAGTFDL | En_HC |
| -0.23 | 6/6 | GFDLNEYGIS | VIYADGQRTAYSDSVK | GNQAGTFDI | En_Gen |
| -0.37 | 6/6 | GFDLNEYGIS | VIYADGMRTFYADSVK | GANAGTFDV | En_Gen |
| 1.31 | 6/6 | GFQLNSYGIS | VIYSDGRRTFYGDAVK | GRTAGTFDS | GP_Gibbs |
| 2.51 | 1/6 | GFTLNDYGIS | VIYSDGRRTFYGDSVK | GRAAGTFVK | GPLM_HC |
| 0.88 | 6/6 | GFSLNEYGIS | VIYADGRRTFYGDSVK | GVAAGTFDS | GP_HC |
| 1.11 | 1/6 | GFDLTEYGIS | VIYADGRRQEYVDDVK | GQTAGHFLH | En_Gibbs |
| no signal | 0/6 | GFTLNSQGIS | VIYMDGRRTFYGDSVK | GRAAGTFDS | Ctrl |
| -0.30 | 6/6 | GFDLDEYGIS | VIYADGVRTAYADSVK | GENAGTFDV | En_Gen |
| 0.22 | 4/6 | GFDLEEYGIS | VIYSDGRRTFYGDSVK | GIAAGTFDS | Ctrl |
| 0.86 | 5/6 | GFTLNSYGIS | VIYSDGKRTFYGDDVK | GRVAGTFDV | GP_Gibbs |
| 0.70 | 1/6 | GFTLNEYGIS | VIYSDGRRTFMGDSVK | GMAAGTFDS | Ctrl |
| no signal | 0/6 | GFDVNEYGIS | VIYADGTRTAYANTVK | GKVVGVFGD | En_Gibbs |
| no signal | 0/6 | GFDLNSYGIC | VIYVDGRRTFYGDSVK | GRAAGWFNS | Rand |
| no signal | 0/6 | GFTLNSYGIS | VIYSDGRRTFYGDKVK | GALKGTFDS | Ctrl |
| 0.86 | 6/6 | GFDLNEYGIS | VIYADGRRTQYIDSVK | GNEAGTFDF | En_HC |
| 1.36 | 1/6 | GFTLNDYGIS | VIYSDGRRTFYIDHVK | GKAAGTFDS | GP_HC |
| 0.54 | 6/6 | GFTLNSYGIS | VIYSDGHRTFYDDSVK | GQTAGTFDS | GPLM_HC |
| -0.66 | 6/6 | GFDLESYGIS | VIYADGRRTFYSDSVK | GHNAGTFDI | En_HC |
| no signal | 0/6 | GFNLNEYGIS | VIYADGVRTSYTDQVK | GVETGAVLE | En_Gibbs |
| no signal | 0/6 | GFNLNSYGIS | VIYSDGRRTFYGDSVK | GRAAGTFLV | Ctrl |
| -0.75 | 6/6 | GFDLNEYGIS | VIYADGQRTFYKDSVK | GTNGGTFDV | En_HC |
| -0.09 | 6/6 | GFSLNSYGIS | VIYSDGRRTFYSDSVK | GWVAGTFDS | GPLM_Gibbs |
| 1.01 | 12/12 | GFTLNSYGIS | VIYSDGRRTFYGDSVK | GQEAGTFDS | Ctrl+GPLM_Gen |
| 0.62 | 6/6 | GFDLNEYGIS | VIYADGQRTAYVDSVK | GNEAGTFDV | En_Gen |
| 0.58 | 6/6 | GFTLNEYGIS | VIYSDGRRTFYGDSVR | GRLAGTFDQ | Ctrl |
| 1.83 | 6/6 | HFTINSYGIS | VIYADGRRTFYGDSVK | GRAAGTFDS | Ctrl |
| 0.56 | 6/6 | GFDLNSYGIS | VIYSDGRRTFYVDSVK | GRYAGTFDS | GPLM_Gibbs |
| -0.34 | 6/6 | GFDIDEYGIS | VIYADGRRTFYADSVK | GQNAGTFDS | En_HC |
| no signal | 0/6 | GFTLNDYGIS | VIYSDGRRTFYWDSVK | GRAALTFIS | Rand |
| -0.04 | 4/6 | GFTLSDYGIS | VIYSDGRRTFYGDSVK | GRAAGTFDS | Ctrl |
| 0.63 | 6/6 | GFDLNEYGIS | VIYADGIRTAYADDVK | GNNAGTFDV | En_Gen |
| -0.13 | 6/6 | GFDLNEYGIS | VIYADGKRTFYADSVK | GNVAGTFDV | En_Gen |
| 0.71 | 6/6 | GFTLNDYGIS | VIYADGRRTFYGDSVK | GRAAGTWDS | Ctrl |
| no signal | 0/6 | GFPIDEYGIS | VIYADGRRTVYSDNVK | GNYGVSIAV | En_Gibbs |
| 1.43 | 6/6 | KFELNSYGIS | VIYADGRRTFYGDSVK | GRAAGTFDS | GPLM_Gibbs |
| 1.30 | 9/12 | GFTLNEYGIS | VIYSDGMRTFYGDSVK | GRAAGTFDS | Ctrl+GPLM_HC |
| -0.32 | 6/6 | GFDLDEYGIS | VIYADGSRTAYADSVK | GNNAGTFDL | En_Gen |
| 1.95 | 1/6 | GFNLNSYGIS | VIYSDGRRTFYGDSVK | GEAAGTFDK | GPLM_Gibbs |
| no signal | 0/6 | GFDYNSYGIS | VIYSDGRRTHYGDSVK | GRAAGWFNS | Rand |
| 0.02 | 6/6 | GFDLEDYGIS | VIYADGQRTAYADSVK | GEIAGTFDV | En_HC |
| 0.21 | 6/6 | GFSLNSYGIS | VIYSDGRRTFYHDSVK | GRVAGTFDS | GPLM_Gen |
| -0.56 | 6/6 | GFDLNEYGIS | VIYADGVRTAYADSVK | GNEAGTFDT | En_Gen |
| -0.41 | 6/6 | GFDLNEYGIS | VIYADGLRTFYTDSVK | GETAGTFDS | En_HC |
| 2.33 | 1/6 | GFTLNDYGYS | VIYFDGCRTFYIDSVK | RRSAGTFDS | Ctrl |
| 3.59 | 1/6 | GFTLNDYGIS | FIYSDGRRTFYQDSVK | GRAAGTFDQ | Ctrl |
| no signal | 0/6 | GFDLNEYGIS | VIYADGQRTAYADDVK | GENAGTFDM | En_Gen |
| 1.37 | 6/6 | GFDIESYGIS | VIYADGIRANYDQKVK | GTIAGTFVD | En_Gibbs |
| 0.25 | 6/6 | GFDLNEYGIS | VIYSDGRRTFYGDAVK | GRAAGTFDS | GP_HC |
| 0.67 | 6/6 | GFSLNNYGIS | VIYSDGRRTFYGDSVK | GRQAGTFDS | GPLM_Gen |
| 0.71 | 6/6 | GFDLNSYGIS | VIYSDGRRTFYGDSVK | GRHAGTFDS | GPLM_Gen |
| 0.58 | 6/6 | GFSLNNYGIS | VIYSDGRRTFYSDSVK | GQAAGTFDS | GPLM_Gen |
| -0.23 | 6/6 | GFNLDEYGIS | VIYADGMRTAYADSVK | GEVAGTFDM | En_Gen |
| -0.19 | 6/6 | GFDLNSYGIS | VIYSDGRRTFYSDQVK | GRTAGTFDS | GP_Gen |
| no signal | 0/6 | GFHLNSYGIS | VIYSDGRRTFYGDSVK | GKQAKTFDS | Ctrl |
| 0.76 | 6/6 | GFTLNEYGIS | VIYSDGRRTFYMDSVK | GRFAGTFDT | GPLM_HC |
| -0.58 | 6/6 | GFDLNEYGIS | VIYADGMRTFYSDSVK | GNVAGTFDT | En_Gen |
| 2.11 | 6/6 | GFTLNSYGIS | VIYSDGRRTFYADSVK | HRAAGTFDS | Ctrl |
| -0.73 | 6/6 | GFDLNEYGIS | VIYADGRRTFYTDNVK | GQNAGTFDM | En_HC |
| 1.28 | 5/6 | GFDLNSYGIS | VIYSDGRRTWYGDSVK | GRQAGTFDS | GP_Gen |
| 0.84 | 6/6 | GFTLNEYGIS | VIYSDGRRQFYGDSVK | GRAAGTFDS | Ctrl |
| 1.32 | 5/6 | GFDLDEYGIS | VIYADGMRSAIRENVK | GEISGTLNA | En_Gibbs |
| no signal | 0/6 | GKEIEEYGIS | VIYADGMRQAYAESVK | GQVAGIGKF | En_Gibbs |
| no signal | 0/6 | GFTLNEYGIS | VIYSDGRRTFYGDSFK | GRAAVTPDQ | Rand |
| no signal | 0/6 | GFTLNSYGIS | VIYSDGRRTFYGPSVK | GRIAGMWDS | Ctrl |
| -0.19 | 6/6 | GFTLNSYGIS | VIYADGRRTFYGDDVK | GEAAGTFDS | GPLM_Gen |
| -0.48 | 6/6 | GFDLNEYGIS | VIYADGRRTYYADSVK | GETAGTFDV | En_Gen |
| 0.13 | 6/6 | GFDLNSYGIS | VIYSDGRRTFYDDSVK | GQNAGTFDS | GPLM_HC |
| no signal | 0/6 | GFDLNEYGIS | VIYADGMRTSYADDVK | GNVAGTFDL | En_Gen |

Excerpt, the final 4 entries:

| CDR-H1 | CDR-H2 | CDR-H3 | group | log10 Kd (nM), mean | replicates with signal |
|---|---|---|---|---|---|
| GFTLNSYGIS | VIYADGRRTFYGDDVK | GEAAGTFDS | GPLM_Gen | -0.19 | 6/6 |
| GFDLNEYGIS | VIYADGRRTYYADSVK | GETAGTFDV | En_Gen | -0.48 | 6/6 |
| GFDLNSYGIS | VIYSDGRRTFYDDSVK | GQNAGTFDS | GPLM_HC | 0.13 | 6/6 |
| GFDLNEYGIS | VIYADGMRTSYADDVK | GNVAGTFDL | En_Gen | no signal | 0/6 |